Test results from ChEMBL document CHEMBL3286325, “Synthesis and evaluation of three structurally related ¹⁸F-labeled orvinols of different intrinsic activities: 6-O-[¹⁸F]fluoroethyl-diprenorphine ([¹⁸F]FDPN), 6-O-[¹⁸F]fluoroethyl-buprenorphine ([¹⁸F]FBPN), and 6-O-[¹⁸F]fluoroethyl-phenethyl-orvinol ([¹⁸F]FPEO)” (2014).

Amino acid sequences for entries named in this document (tags omitted).
UniProt P35372, whole entry, looked up: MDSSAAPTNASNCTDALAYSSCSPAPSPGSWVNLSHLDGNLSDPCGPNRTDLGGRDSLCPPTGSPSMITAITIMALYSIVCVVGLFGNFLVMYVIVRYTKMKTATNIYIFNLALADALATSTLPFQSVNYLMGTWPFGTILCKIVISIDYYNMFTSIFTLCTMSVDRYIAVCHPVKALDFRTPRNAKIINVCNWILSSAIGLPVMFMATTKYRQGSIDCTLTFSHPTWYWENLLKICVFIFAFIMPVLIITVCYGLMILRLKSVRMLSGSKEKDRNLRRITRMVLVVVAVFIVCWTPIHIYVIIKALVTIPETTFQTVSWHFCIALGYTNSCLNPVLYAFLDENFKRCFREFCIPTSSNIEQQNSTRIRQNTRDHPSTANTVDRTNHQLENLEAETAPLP

Columns and labels:
Mu-type opioid receptor = Mu-type opioid receptor (Homo sapiens, UniProt P35372); details: cho
Brain [1] = assay: Metabolic stability in mouse brain assessed as intact compound level after 30 mins; details: 0.5 h
Brain [2] = assay: Metabolic stability in Sprague-Dawley rat brain assessed as remaining compound level at 40 to 80 MBq, iv after 20 mins; details: in vivo, strain Sprague-Dawley
Brain [3] = assay: Metabolic stability in Sprague-Dawley rat brain assessed as intact compound level at 40 to 80 MBq, iv after 40 mins by radio-TLC analysis; details: in vivo, strain Sprague-Dawley
Blood [4] = assay: Metabolic stability in Sprague-Dawley rat blood assessed as intact compound level at 40 to 80 MBq, iv after 40 mins by radio-TLC analysis; details: strain Sprague-Dawley
Brain [5] = assay: Metabolic stability in Sprague-Dawley rat brain assessed as remaining compound level at 40 to 80 MBq, iv after 40 mins; details: in vivo, strain Sprague-Dawley
Cerebellum = assay: Ratio of SUV of drug uptake in Sprague-Dawley basal ganglia to cerebellum at 16 to 57 GBq/umol, iv up to 85 mins by PET analysis; details: rat, in vivo, strain Sprague-Dawley
Serum [6] = assay: Drug uptake in Sprague-Dawley rat serum at 40 to 80 MBq, iv after 40 mins; details: in vivo, strain Sprague-Dawley
[7] = Binding affinity to Sprague-Dawley rat serum protein at 40 to 80 MBq, iv after 40 mins; details: strain Sprague-Dawley
Blood [8] = assay: Metabolic stability in Sprague-Dawley rat blood assessed as intact compound level at 40 to 80 MBq, iv after 20 mins by radio-TLC analysis; details: strain Sprague-Dawley
Brain [9] = assay: Metabolic stability in Sprague-Dawley rat brain assessed as intact compound level at 40 to 80 MBq, iv after 20 mins by radio-TLC analysis; details: in vivo, strain Sprague-Dawley
Brain [10] = assay: Metabolic stability in Sprague-Dawley rat brain assessed as intact compound level at 40 to 80 MBq, iv after 5 mins by radio-TLC analysis; details: in vivo, strain Sprague-Dawley
Serum [11] = assay: Drug uptake in Sprague-Dawley rat serum at 40 to 80 MBq, iv after 5 mins; details: in vivo, strain Sprague-Dawley
Brain [12] = assay: Metabolic stability in Sprague-Dawley rat brain assessed as remaining compound level at 40 to 80 MBq, iv after 5 mins; details: in vivo, strain Sprague-Dawley
Serum [13] = assay: Drug uptake in Sprague-Dawley rat serum at 8 to 10 MBq after 5 mins; details: strain Sprague-Dawley
Blood [14] = assay: Metabolic stability in Sprague-Dawley rat blood assessed as intact compound level at 40 to 80 MBq, iv after 5 mins by radio-TLC analysis; details: strain Sprague-Dawley

SMILES | Ki (Mu-type opioid receptor) | Stability (Brain [1]) | Stability (Brain [2]) | Stability (Brain [3]) | Stability (Blood [4]) | Stability (Brain [5]) | Ratio (Cerebellum) | Drug uptake (Serum [6]) | PB [7] | Stability (Blood [8]) | Stability (Brain [9]) | Stability (Brain [10]) | Drug uptake (Serum [11]) | Stability (Brain [12]) | Drug uptake (Serum [13]) | Stability (Blood [14])
CO[C@]12CC[C@@]3(C[C@@H]1C(C)(C)O)[C@H]1Cc4ccc(O)c5c4[C@@]3(CCN1CC1CC1)[C@H]2O5 | 70 pM |  |  |  |  |  |  |  |  |  |  |  |  |  |  | 
CC(C)(O)[C@H]1C[C@@]23CC[C@@]1(OCC[18F])[C@@H]1Oc4c(O)ccc5c4[C@@]12CCN(CC1CC1)[C@@H]3C5 |  | 80% | 92% | 96.9% | 4.8% | 93% | 5.03 | 29% | 9% | 6.9% | 98% | 94.6% | 48% | 94% | 14% | 12.5%
